## Cyclic peptide permeability, from CycPeptMPDB

Collected by the curators of CycPeptMPDB (Li et al. 2023) from Furukawa et al. 2016, doi:10.1021/acs.jmedchem.6b01246.

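Conditions beyond the assay type are not listed; see the original paper. The list need not hold all peptides of the study. Entries at the database's floor value (log10 P of -10) are not listed.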

PAMPA measures passive passage through an artificial lipid membrane. P is given in units of 10^-6 cm/s (from log10 values with two decimals); larger means faster passage.

| SMILES | PAMPA (10^-6 cm/s) |
|---|---|
| CCCC[C@@H]1NC(=O)[C@H](CC(C)C)N(C)C(=O)CN(CC2CCCCC2)C(=O)[C@@H](C)NC(=O)CN(CC)C(=O)[C@H]2CCCN2C1=O | 1 |
| CCCC[C@@H]1NC(=O)[C@H](CC(C)C)N(C)C(=O)CN(CC2CCCCC2)C(=O)[C@@H](Cc2ccccc2)NC(=O)CN(CCCOC(C)C)C(=O)[C@H]2CCCN2C1=O | 7.1 |
| CCCC[C@@H]1NC(=O)[C@H](CC(C)C)NC(=O)CN(CC2CCCCC2)C(=O)[C@H](C)NC(=O)CN(CC)C(=O)[C@@H]2CCCN2C1=O | 0.41 |
| CCCC[C@@H]1NC(=O)[C@@H](CC(C)C)NC(=O)CN(CC2CCCCC2)C(=O)[C@@H](C)NC(=O)CN(CCCOC(C)C)C(=O)[C@@H]2CCCN2C1=O | 1.5 |
| CCCC[C@@H]1NC(=O)[C@H](CC(C)C)N(C)C(=O)CN(CC2CCCCC2)C(=O)[C@@H](Cc2ccccc2)NC(=O)CN(CCCOC(C)C)C(=O)[C@@H]2CCCN2C1=O | 7.9 |
| CCCC[C@@H]1NC(=O)[C@@H](CC(C)C)N(C)C(=O)CN(CC2CCCCC2)C(=O)[C@H](Cc2ccccc2)NC(=O)CN(CCCOC(C)C)C(=O)[C@H]2CCCN2C1=O | 1.7 |
| CCCCCN1CC(=O)N(C)[C@H](CC(C)C)C(=O)N[C@@H](CCCC)C(=O)N2CCC[C@@H]2C(=O)N(Cc2ccc3c(c2)OCO3)CC(=O)N[C@@H](C)C1=O | 10 |
| CCCC[C@@H]1NC(=O)[C@H](CC(C)C)N(C)C(=O)CN(CC2CCOCC2)C(=O)[C@@H](Cc2ccccc2)NC(=O)CN(Cc2ccc3c(c2)OCO3)C(=O)[C@@H]2CCCN2C1=O | 0.68 |
| CCCC[C@@H]1NC(=O)[C@@H](CC(C)C)NC(=O)CN(CC2CCOCC2)C(=O)[C@H](Cc2ccccc2)NC(=O)CN(CC)C(=O)[C@@H]2CCCN2C1=O | 0.91 |
| CCCC[C@@H]1NC(=O)[C@H](CC(C)C)NC(=O)CN(CC2CCCCC2)C(=O)[C@H](Cc2ccccc2)NC(=O)CN(CC)C(=O)[C@H]2CCCN2C1=O | 11 |
| CCCC[C@@H]1NC(=O)[C@@H](CC(C)C)N(C)C(=O)CN(CC2CCOCC2)C(=O)[C@@H](Cc2ccccc2)NC(=O)CN(CC)C(=O)[C@@H]2CCCN2C1=O | 0.6 |
| CCCCCN1CC(=O)N[C@H](CC(C)C)C(=O)N[C@@H](CCCC)C(=O)N2CCC[C@H]2C(=O)N(Cc2ccc3c(c2)OCO3)CC(=O)N[C@@H](C)C1=O | 8.5 |
| CCCCCN1CC(=O)N[C@@H](CC(C)C)C(=O)N[C@@H](CCCC)C(=O)N2CCC[C@H]2C(=O)N(CC)CC(=O)N[C@@H](Cc2ccccc2)C1=O | 5.9 |
| CCCC[C@@H]1NC(=O)[C@@H](CC(C)C)N(C)C(=O)CN(CC2CCCCC2)C(=O)[C@@H](Cc2ccccc2)NC(=O)CN(CCCOC(C)C)C(=O)[C@H]2CCCN2C1=O | 3.3 |

Repeated from above, the 2 entries with the highest PAMPA:

| SMILES | PAMPA (10^-6 cm/s) |
|---|---|
| CCCC[C@@H]1NC(=O)[C@H](CC(C)C)NC(=O)CN(CC2CCCCC2)C(=O)[C@H](Cc2ccccc2)NC(=O)CN(CC)C(=O)[C@H]2CCCN2C1=O | 11 |
| CCCCCN1CC(=O)N(C)[C@H](CC(C)C)C(=O)N[C@@H](CCCC)C(=O)N2CCC[C@@H]2C(=O)N(Cc2ccc3c(c2)OCO3)CC(=O)N[C@@H](C)C1=O | 10 |